The target in this series is CYP1A2 (Homo sapiens, UniProt P05177). The note with it: GLPG1205 relative to placebo (ANOVA).

Amino acid sequences for entries named in this document (tags omitted).
UniProt P05177, whole entry: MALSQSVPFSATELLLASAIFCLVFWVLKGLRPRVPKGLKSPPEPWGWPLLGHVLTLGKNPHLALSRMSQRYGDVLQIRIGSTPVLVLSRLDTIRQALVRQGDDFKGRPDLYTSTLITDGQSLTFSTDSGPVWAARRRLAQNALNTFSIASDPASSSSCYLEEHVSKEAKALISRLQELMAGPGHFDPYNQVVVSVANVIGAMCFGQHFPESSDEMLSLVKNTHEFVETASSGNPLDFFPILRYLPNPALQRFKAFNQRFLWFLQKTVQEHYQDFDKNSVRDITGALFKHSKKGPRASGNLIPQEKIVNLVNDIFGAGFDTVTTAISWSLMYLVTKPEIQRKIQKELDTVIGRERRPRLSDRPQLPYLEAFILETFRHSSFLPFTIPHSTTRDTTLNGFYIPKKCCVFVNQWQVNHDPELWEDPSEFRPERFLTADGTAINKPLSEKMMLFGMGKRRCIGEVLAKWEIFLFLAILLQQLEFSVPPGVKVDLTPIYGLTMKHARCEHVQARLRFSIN

Consider `Cn1c(=O)c2c(ncn2C)n(C)c1=O` [Caffeine, caffeine], for which the “AUC0‐inf, PE (90% CI) of least‐squares geometric means ratio” value is reported as 0.93 (0.81‐1.07); the “AUC0‐t, PE (90% CI) of least‐squares geometric means ratio” value was 0.96 (0.86‐1.06); the “Cmax, PE (90% CI) of least‐squares geometric means ratio” value is 0.99 (0.88‐1.11); the “t1/2, λz, PE (90% CI) of least‐squares geometric means ratio” value is on record as 0.92 (0.83‐1.01).

The values above are taken from paper PMC8453848, “Effect of GLPG1205, a GPR84 Modulator, on CYP2C9, CYP2C19, and CYP1A2 Enzymes: In Vitro and Phase 1 Studies” (Clinical Pharmacology in Drug Development, 2021).
